Measurements published in patent publication US7070773B2, “Chemical and/or biological decontamination system” (dated 2006).

Protein sequences, listed by entry. Tags and fused reporters are not part of them. Residues count along the entry.
UniProt P22303, 32-614 limits assumed: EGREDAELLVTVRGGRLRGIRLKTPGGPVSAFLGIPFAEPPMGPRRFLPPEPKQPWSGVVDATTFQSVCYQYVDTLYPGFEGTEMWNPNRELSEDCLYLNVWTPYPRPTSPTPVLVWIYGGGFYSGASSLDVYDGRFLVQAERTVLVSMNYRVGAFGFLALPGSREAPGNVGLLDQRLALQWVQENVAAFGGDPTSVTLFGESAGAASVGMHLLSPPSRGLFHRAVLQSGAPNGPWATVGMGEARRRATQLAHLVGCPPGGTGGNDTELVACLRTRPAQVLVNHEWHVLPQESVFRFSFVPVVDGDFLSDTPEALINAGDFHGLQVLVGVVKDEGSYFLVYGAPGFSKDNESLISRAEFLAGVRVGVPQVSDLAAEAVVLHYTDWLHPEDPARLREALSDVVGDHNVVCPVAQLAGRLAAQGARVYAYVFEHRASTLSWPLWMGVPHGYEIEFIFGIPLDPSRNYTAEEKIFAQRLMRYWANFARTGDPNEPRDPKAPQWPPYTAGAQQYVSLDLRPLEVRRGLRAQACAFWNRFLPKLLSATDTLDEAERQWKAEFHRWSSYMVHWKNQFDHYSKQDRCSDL

How the values were obtained:
[1] = DFP testing, Ellman's assay; conditions: initial studies
[2] = system: bacteria; test: Exposure of bacteria to varying levels of BAC alone
[3] = system: Bacillus globigii vegetative cells; conditions: tryptic soy broth
[4] = system: Bacillus globigii spores; conditions: tryptic soy broth
[5] = molecular target: acetylcholinesterase (AChE) (Homo sapiens, UniProt P22303); test: Ellman's acetylcholinesterase assay, impact of test materials on AChE; conditions: for direct impact on the Ellman's assay: preliminary studies
[6] = concentration not printed, listed as Benzalkonium chloride

Compound | inhibition of the chemical agent DFP [1] | RESULT (Cells) ([3]; concentration not printed) | RESULT (Spores) ([4]; concentration not printed) | direct impact on the Ellman's assay [5] | other results
benzalkonium chloride | do not inhibit the chemical agent DFP | highly bacteriocidal | no effect on spore germination | – | activity against bacteria ([2]; high levels): bacteriocidal activity; activity against bacteria ([2]; lower levels): bacteriostatic activity; RESULT (Cells) [3, 6]: Bacteriocidal to 10^8; RESULT (Spores) [4, 6]: No change observed
tetrakishydroxymethyl phosphonium sulfate | do not inhibit the chemical agent DFP | bacteriocidal effect on cells | no spore germination | reacts directly with the colorimetric reagent | interference with the Ellman's assay ([5]; blended with other biocides): did not interfere with the Ellman's assay; RESULT (Cells) ([3]; 7500 ppm): Bacteriocidal; RESULT (Spores) ([4]; 7500 ppm): No spore germination observed
O=C(O)CN(CCN(CC(=O)O)CC(=O)O)CC(=O)O | – | – | – | do not directly impact the assay | RESULT (Cells) ([3]; 270 mM): No effect observed; RESULT (Spores) ([4]; 270 mM): No change observed
[H]/N=C(/N)N[C@H]1[C@H](O)[C@@H](O)[C@H](O[C@@H]2O[C@@H](C)[C@](O)(C=O)[C@H]2O[C@@H]2O[C@@H](CO)[C@H](O)[C@@H](O)[C@@H]2NC)[C@@H](N/C(N)=N\[H])[C@@H]1O | – | No effect observed | Reduced spore germination | – | –
Oc1cc(Cl)ccc1Oc1ccc(Cl)cc1Cl | do not inhibit the chemical agent DFP | bacteriocidal effect on cells | no spore germination | do not directly impact the assay | RESULT (Cells) ([3]; 5000 ppm): Bacteriocidal; RESULT (Spores) ([4]; 5000 ppm): No spore germination observed
urea | – | – | – | do not directly impact the assay | RESULT (Cells) ([3]; 1.7M): No effect observed; RESULT (Spores) ([4]; 1.7M): Slight growth rate reduction

Where two headings read alike, the source gives them in different places.
